Results: the Human Domainome abundance scans (Beltran et al. 2025)
± gives the uncertainty stated by the source.

B1: Tyrosine-protein kinase ABL1, residues 64 to 120; numbered along this chain, P00519 (parent)
chain: NLFVALYDFVASGDNTLSITKGEKLRVLGYNHNGEWCEAQTKNGQGWVPSNYITPVN

Variants of: B1
Assay: abundance fitness (aPCA) (normalised: wild type 0, dead -1); higher = more abundant; growth selection in yeast, the domain comes from the species named
Conditions: Homo sapiens

In order of rising abundance fitness:
1. NLFVALYDFVASGDNTLSWTKGEKLRVLGYNHNGEWCEAQTKNGQGWVPSNYITPVN [I19W]  -1.08 ± 0.4
2. NLFVALYDFVASGDNTLSYTKGEKLRVLGYNHNGEWCEAQTKNGQGWVPSNYITPVN [I19Y]  -1.05 ± 0.29
3. NLFVALYDFVASGDNTLSNTKGEKLRVLGYNHNGEWCEAQTKNGQGWVPSNYITPVN [I19N]  -1.01 ± 0.11
4. NLFVALYDFVASGDNTLSRTKGEKLRVLGYNHNGEWCEAQTKNGQGWVPSNYITPVN [I19R]  -1.01 ± 0.17
5. NLFVALYDFVASGDNTLSPTKGEKLRVLGYNHNGEWCEAQTKNGQGWVPSNYITPVN [I19P]  -0.982 ± 0.21
6. NLFVALYDFVASGDNTLSITIGEKLRVLGYNHNGEWCEAQTKNGQGWVPSNYITPVN [K21I]  -0.951 ± 0.16
7. NLFVALYDFVASGDNTLSQTKGEKLRVLGYNHNGEWCEAQTKNGQGWVPSNYITPVN [I19Q]  -0.941 ± 0.34
8. NLFVALYDFVASGDNTLSSTKGEKLRVLGYNHNGEWCEAQTKNGQGWVPSNYITPVN [I19S]  -0.941 ± 0.11
9. NLFVALYDFVASGDNTLSHTKGEKLRVLGYNHNGEWCEAQTKNGQGWVPSNYITPVN [I19H]  -0.939 ± 0.35
10. NLFVALYDFVASGDNTLSIPKGEKLRVLGYNHNGEWCEAQTKNGQGWVPSNYITPVN [T20P]  -0.82 ± 0.34
11. NLFVALYDFVASGDNTLSDTKGEKLRVLGYNHNGEWCEAQTKNGQGWVPSNYITPVN [I19D]  -0.789 ± 0.26
12. NLFVALYDFVASGDNTLWITKGEKLRVLGYNHNGEWCEAQTKNGQGWVPSNYITPVN [S18W]  -0.743 ± 0.2
13. NLFVALYDFVASGDNTLSGTKGEKLRVLGYNHNGEWCEAQTKNGQGWVPSNYITPVN [I19G]  -0.696 ± 0.15
14. NLFVALYDFVASGDNTLSKTKGEKLRVLGYNHNGEWCEAQTKNGQGWVPSNYITPVN [I19K]  -0.643 ± 0.33
15. NLFVALYDFVASGDNTLSATKGEKLRVLGYNHNGEWCEAQTKNGQGWVPSNYITPVN [I19A]  -0.507 ± 0.12
16. NLFVALYDFVASGDNTLSIKKGEKLRVLGYNHNGEWCEAQTKNGQGWVPSNYITPVN [T20K]  -0.358 ± 0.16
17. NLFVALYDFVASGDNTLSITGGEKLRVLGYNHNGEWCEAQTKNGQGWVPSNYITPVN [K21G]  -0.353 ± 0.073
18. NLFVALYDFVASGDNTLSIFKGEKLRVLGYNHNGEWCEAQTKNGQGWVPSNYITPVN [T20F]  -0.351 ± 0.18
19. NLFVALYDFVASGDNTLSIDKGEKLRVLGYNHNGEWCEAQTKNGQGWVPSNYITPVN [T20D]  -0.341 ± 0.11
20. NLFVALYDFVASGDNTLSTTKGEKLRVLGYNHNGEWCEAQTKNGQGWVPSNYITPVN [I19T]  -0.318 ± 0.11
21. NLFVALYDFVASGDNTLSITCGEKLRVLGYNHNGEWCEAQTKNGQGWVPSNYITPVN [K21C]  -0.302 ± 0.16
22. NLFVALYDFVASGDNTLSIWKGEKLRVLGYNHNGEWCEAQTKNGQGWVPSNYITPVN [T20W]  -0.291 ± 0.13
23. NLFVALYDFVASGDNTLSIHKGEKLRVLGYNHNGEWCEAQTKNGQGWVPSNYITPVN [T20H]  -0.28 ± 0.21
24. NLFVALYDFVASGDNTLVITKGEKLRVLGYNHNGEWCEAQTKNGQGWVPSNYITPVN [S18V]  -0.254 ± 0.067
25. NLFVALYDFVASGDNTLSIMKGEKLRVLGYNHNGEWCEAQTKNGQGWVPSNYITPVN [T20M]  -0.233 ± 0.15
26. NLFVALYDFVASGDNTLSIGKGEKLRVLGYNHNGEWCEAQTKNGQGWVPSNYITPVN [T20G]  -0.221 ± 0.069
27. NLFVALYDFVASGDNTLSVTKGEKLRVLGYNHNGEWCEAQTKNGQGWVPSNYITPVN [I19V]  -0.187 ± 0.11
28. NLFVALYDFVASGDNTLSICKGEKLRVLGYNHNGEWCEAQTKNGQGWVPSNYITPVN [T20C]  -0.157 ± 0.15
29. NLFVALYDFVASGDNTLSFTKGEKLRVLGYNHNGEWCEAQTKNGQGWVPSNYITPVN [I19F]  -0.152 ± 0.13
30. NLFVALYDFVASGDNTLSCTKGEKLRVLGYNHNGEWCEAQTKNGQGWVPSNYITPVN [I19C]  -0.149 ± 0.098
31. NLFVALYDFVASGDNTLSIRKGEKLRVLGYNHNGEWCEAQTKNGQGWVPSNYITPVN [T20R]  -0.145 ± 0.063
32. NLFVALYDFVASGDNTLSMTKGEKLRVLGYNHNGEWCEAQTKNGQGWVPSNYITPVN [I19M]  -0.118 ± 0.082
33. NLFVALYDFVASGDNTLSITEGEKLRVLGYNHNGEWCEAQTKNGQGWVPSNYITPVN [K21E]  -0.106 ± 0.078
34. NLFVALYDFVASGDNTLSISKGEKLRVLGYNHNGEWCEAQTKNGQGWVPSNYITPVN [T20S]  -0.104 ± 0.078
35. NLFVALYDFVASGDNTLSINKGEKLRVLGYNHNGEWCEAQTKNGQGWVPSNYITPVN [T20N]  -0.085 ± 0.092
36. NLFVALYDFVASGDNTLSIAKGEKLRVLGYNHNGEWCEAQTKNGQGWVPSNYITPVN [T20A]  -0.063 ± 0.076
37. NLFVALYDFVASGDNTLSIVKGEKLRVLGYNHNGEWCEAQTKNGQGWVPSNYITPVN [T20V]  -0.041 ± 0.088
38. NLFVALYDFVASGDNTLSLTKGEKLRVLGYNHNGEWCEAQTKNGQGWVPSNYITPVN [I19L]  -0.013 ± 0.075
39. NLFVALYDFVASGDNTLSITAGEKLRVLGYNHNGEWCEAQTKNGQGWVPSNYITPVN [K21A]  0.01 ± 0.12
40. NLFVALYDFVASGDNTLSILKGEKLRVLGYNHNGEWCEAQTKNGQGWVPSNYITPVN [T20L]  0.034 ± 0.069
41. NLFVALYDFVASGDNTLSITLGEKLRVLGYNHNGEWCEAQTKNGQGWVPSNYITPVN [K21L]  0.085 ± 0.1
42. NLFVALYDFVASGDNTLQITKGEKLRVLGYNHNGEWCEAQTKNGQGWVPSNYITPVN [S18Q]  0.129 ± 0.11
43. NLFVALYDFVASGDNTLSIQKGEKLRVLGYNHNGEWCEAQTKNGQGWVPSNYITPVN [T20Q]  0.158 ± 0.11
44. NLFVALYDFVASGDNTLRITKGEKLRVLGYNHNGEWCEAQTKNGQGWVPSNYITPVN [S18R]  0.204 ± 0.073
45. NLFVALYDFVASGDNTLSIIKGEKLRVLGYNHNGEWCEAQTKNGQGWVPSNYITPVN [T20I]  0.322 ± 0.099
46. NLFVALYDFVASGDNTLSITHGEKLRVLGYNHNGEWCEAQTKNGQGWVPSNYITPVN [K21H]  0.75 ± 0.36
